The values that follow come from patent US9440982B2 (Eolas Therapeutics, Inc., priority 2012, dated 2016).

By UniProt entry, the sequences of proteins in these tests, tags left out.
UniProt O43614, whole entry: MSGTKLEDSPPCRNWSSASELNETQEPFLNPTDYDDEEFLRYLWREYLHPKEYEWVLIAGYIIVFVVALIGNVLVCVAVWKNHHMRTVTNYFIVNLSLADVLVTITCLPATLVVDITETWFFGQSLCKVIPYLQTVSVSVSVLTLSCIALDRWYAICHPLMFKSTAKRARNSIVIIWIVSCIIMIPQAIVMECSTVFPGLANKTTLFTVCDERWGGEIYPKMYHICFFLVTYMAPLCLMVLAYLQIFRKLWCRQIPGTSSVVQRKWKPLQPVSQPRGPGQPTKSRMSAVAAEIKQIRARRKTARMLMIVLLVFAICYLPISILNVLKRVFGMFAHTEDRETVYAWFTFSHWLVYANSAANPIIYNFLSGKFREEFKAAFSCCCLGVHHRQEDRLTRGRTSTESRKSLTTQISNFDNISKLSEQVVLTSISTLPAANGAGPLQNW

Structures are written as SMILES. Where only a bound is given, the exact number is not on record here.

For the first experiment, the target named is T1, OX2 (Homo sapiens, UniProt O43614).
T1 construct: expressed in transfected cells; host or cells: CHO (CHO-OX2, kept under selection antibiotic)
Nature of the experiment: Orexin receptor cell-based functional assay, [Ca2+]i by FLIPR, CHO-OX2 cells. The following applies: CHO-OX2 cells, [Ca2+]i by FLIPR, antagonist dose-range 0.1 nM-10 μM, EC90 of OXA; read-out: OX2.
As for `Cc1ccc(-n2cccn2)c(C(=O)N2CCC[C@@H](C)[C@H]2CNc2ccc(C(F)(F)F)nn2)c1` [Example A157, ((2S,3R)-3-mMethyl-2-(((6-(trifluoromethyl)pyridazin-3-yl)amino)methyl)piperidin-1-yl)(5-methyl-2-(1H-pyrazol-1-yl)phenyl)methanone], the IC50 is over 5 µM.
Regarding `Cc1ccc(-n2cccn2)c(C(=O)N2CCC[C@@H](C)[C@H]2CNc2ccc(C(F)(F)F)nn2)n1` [Example A164, ((2S,3R)-3-Methyl-2-(((6-(trifluoromethyl)pyridazin-3-yl)amino)methyl)piperidin-1-yl)(6-methyl-3-(1H-pyrazol-1-yl)pyridin-2-yl)methanone], the IC50 was over 5 µM.
Take `Cc1ccc(-n2nccn2)c(C(=O)N2CCC[C@@H](C)[C@H]2CNc2ncc(C(F)(F)F)cn2)c1F` [Example A319, (2-Fluoro-3-methyl-6-(2H-1,2,3-triazol-2-yl)phenyl)((2S,3R)-3-methyl-2-(((5-(trifluoromethyl)pyrimidin-2-yl)amino)methyl)piperidin-1-yl)methanone]: the IC50 was found to be 4.5 µM.
On the same count and under the same terms, next, `Cc1ccc(-c2ccccn2)c(C(=O)N2CCC[C@@H](C)[C@H]2CNc2nnc(C(F)(F)F)s2)c1` [Example A151, ((2S,3R)-3-Methyl-2-(((5-(trifluoromethyl)-1,3,4-thiadiazol-2-yl)amino)methyl)piperidin-1-yl)(5-methyl-2-(pyridin-2-yl)phenyl)methanone]: over 5 µM; `Cc1ccc(-c2ccc(F)cn2)c(C(=O)N2CCC[C@@H](C)[C@H]2CNc2ccc(Cl)cn2)c1` [Example A159, ((2S,3R)-2-(((5-Chloropyridin-2-yl)amino)methyl)-3-methylpiperidin-1-yl)(2-(5-fluoropyridin-2-yl)-5-methylphenyl)methanone]: over 5 µM; `Cc1ccc(-n2nccn2)c(C(=O)N2CCC[C@@H](C)[C@H]2CNc2ncccc2C#N)c1` [Example A90, 2-((((2S,3R)-3-Methyl-1-(5-methyl-2-(2H-1,2,3-triazol-2-yl)benzoyl)piperidin-2-yl)methyl)amino)nicotinonitrile]: over 5 µM.
For the compound `Cc1ccc(-n2ncc(C)n2)c(C(=O)N2CCC[C@@H](C)[C@H]2CNc2ccc(C(F)(F)F)nn2)c1` [Example A125, ((2S,3R)-3-Methyl-2-(((6-(trifluoromethyl)pyridazin-3-yl)amino)methyl)piperidin-1-yl)(5-methyl-2-(4-methyl-2H-1,2,3-triazol-2-yl)phenyl)methanone], the IC50 was over 5 µM.
For the compound `Cc1ccc(-n2cccn2)c(C(=O)N2CCC[C@@H](C)[C@H]2CNc2ccc(Cl)cn2)n1` [Example A168, ((2S,3R)-2-(((5-Chloropyridin-2-yl)amino)methyl)-3-methylpiperidin-1-yl)(6-methyl-3-(1H-pyrazol-1-yl)pyridin-2-yl)methanone], the IC50 is over 5 µM.
On the same count and under the same terms, next, `Cc1ccc(C(=O)N2CCC[C@@H](C)[C@H]2CNc2ncc(Cl)cn2)c(-n2nccn2)c1` [Example A271, ((2S,3R)-2-(((5-Chloropyrimidin-2-yl)amino)methyl)-3-methylpiperidin-1-yl)(4-methyl-2-(2H-1,2,3-triazol-2-yl)phenyl)methanone]: 9.4 µM; `Cc1ccc(-n2nccn2)c(C(=O)N2CCC[C@@H](C)[C@H]2CNc2ccc(C#N)cn2)c1` [Example A46, 6-((((2S,3R)-3-Methyl-1-(5-methyl-2-(2H-1,2,3-triazol-2-yl)benzoyl)piperidin-2-yl)methyl)amino)nicotinonitrile]: over 5 µM; `COc1c(F)cccc1C(=O)N1CCC[C@@H](C)[C@H]1CNc1ccc(C(F)(F)F)cn1` [Example A75, (3-Fluoro-2-methoxyphenyl)((2S,3R)-3-methyl-2-(((5-(trifluoromethyl)pyridin-2-yl)amino)methyl)piperidin-1-yl)methanone]: over 5 µM.
On the same count and under the same terms, to `C[C@@H]1CCCN(C(=O)c2cccc(F)c2-c2ncccn2)[C@@H]1CNc1ccc(Cl)cn1` [Example A232, ((2S,3R)-2-(((5-chloropyridin-2-yl)amino)methyl)-3-methylpiperidin-1-yl)(3-fluoro-2-(pyrimidin-2-yl)phenyl)methanone] belongs over 5 µM; to `Cc1ccc(-c2ncccn2)c(C(=O)N2CCC[C@@H](C)[C@H]2CNc2ccc(Cl)cn2)n1` [Example A186, ((2S,3R)-2-(((5-chloropyridin-2-yl)amino)methyl)-3-methylpiperidin-1-yl)(6-methyl-3-(pyrimidin-2-yl)pyridin-2-yl)methanone], over 5 µM.
Take `Cc1ccc(-n2ncc(C)n2)c(C(=O)N2CCC[C@@H](C)[C@H]2CNc2ccc(C(F)(F)F)cn2)c1` [Example A112, ((2S,3R)-3-Methyl-2-(((5-(trifluoromethyl)pyridin-2-yl)amino)methyl)piperidin-1-yl)(5-methyl-2-(4-methyl-2H-1,2,3-triazol-2-yl)phenyl)methanone]: the IC50 was 0.25 µM.
Regarding `Cc1ccc(-n2nccn2)c(C(=O)N2CCC[C@@H](C)[C@H]2CNc2ccc(C(F)(F)F)nn2)c1` [Example A119, ((2S,3R)-3-Methyl-2-(((6-(trifluoromethyl)pyridazin-3-yl)amino)methyl)piperidin-1-yl)(5-methyl-2-(2H-1,2,3-triazol-2-yl)phenyl)methanone], the IC50 is over 5 µM.
Same read-out and setting: next, `Cc1ccc(-c2cccnc2)c(C(=O)N2CCC[C@@H](C)[C@H]2CNc2ccc(Cl)cn2)n1` [Example A224]: over 5 µM.
In the case of `Cc1cccc(C(=O)N2CCC[C@@H](C)[C@H]2CNc2ccc(C(F)(F)F)cn2)c1-n1nccn1` [Example A266, ((2S,3R)-3-Methyl-2-(((5-(trifluoromethyl)pyridin-2-yl)amino)methyl)piperidin-1-yl)(3-methyl-2-(2H-1,2,3-triazol-2-yl)phenyl)methanone], the IC50 was determined as 1.1 µM.
For the compound `Cc1ccc(-c2ccccn2)c(C(=O)N2CCC[C@@H](C)[C@H]2CNc2ncc(F)cn2)c1` [Example A179, ((2S,3R)-2-(((5-Fluoropyrimidin-2-yl)amino)methyl)-3-methylpiperidin-1-yl)(5-methyl-2-(pyridin-2-yl)phenyl)methanone], the IC50 is over 5 µM.
Consider `C[C@@H]1CCCN(C(=O)c2cc(F)c(F)cc2-n2nccn2)[C@@H]1CNc1ccc(Cl)cn1` [Example A246, ((2S,3R)-2-(((5-Chloropyridin-2-yl)amino)methyl)-3-methylpiperidin-1-yl)(4,5-difluoro-2-(2H-1,2,3-triazol-2-yl)phenyl)methanone], for which the IC50 was over 5 µM.
Turning to `Cc1ccc(NC[C@@H]2[C@H](C)CCCN2C(=O)c2cc(C)ccc2-c2ccccn2)nc1` [Example A59, ((2S,3R)-3-Methyl-2-(((5-methylpyridin-2-yl)amino)methyl)piperidin-1-yl)(5-methyl-2-(pyridin-2-yl)phenyl)methanone], the IC50 was over 2 µM.
`Cc1ccc(-n2nccn2)c(C(=O)N2CCC[C@H](C)[C@H]2CNc2ccc(C(F)(F)F)cn2)c1` (racemic) [Example A67, rac-trans-(3-Methyl-2-(((5-(trifluoromethyl)pyridin-2-yl)amino)methyl)piperidin-1-yl)(5-methyl-2-(2H-1,2,3-triazol-2-yl)phenyl)methanone]: the IC50 was 0.13 µM.
On to `C[C@@H]1CCCN(C(=O)c2c(F)cccc2-c2ncccn2)[C@@H]1CNc1ncc(C(F)(F)F)cn1` [Example A240, (2-Fluoro-6-(pyrimidin-2-yl)phenyl)((2S,3R)-3-methyl-2-(((5-(trifluoromethyl)pyrimidin-2-yl)amino)methyl)piperidin-1-yl)methanone], for which the IC50 was over 5 µM.
Regarding `C[C@@H]1CCCN(C(=O)c2ccccc2-n2nccn2)[C@@H]1CNc1ccc(C(F)(F)F)cn1` [Example A314, (2-(2H-1,2,3-Triazol-2-yl)phenyl)((2S,3R)-3-methyl-2-(((5-(trifluoromethyl)pyridin-2-yl)amino)methyl)piperidin-1-yl)methanone], the IC50 was found to be 2.7 µM.
As for `Cc1ccc(-c2nccn2C)c(C(=O)N2CCC[C@@H](C)[C@H]2CNc2ccc(C(F)(F)F)cn2)c1` [Example A20, ((2S,3R)-3-Methyl-2-(((5-(trifluoromethyl)pyridin-2-yl)amino)methyl)piperidin-1-yl)(5-methyl-2-(1-methyl-1H-imidazol-2-yl)phenyl)methanone], the IC50 was over 4 µM.

Still in this experiment, the particulars now being: Table 2; CHO-OX2 cells, EC90 of OXA; read-out: IC50 Bioactivity OX2.
In the case of `Cc1nc(C(=O)N2CCC[C@@H](C)[C@H]2CNc2ccc(F)cn2)c(-c2ccc(F)cc2)s1` (racemic) [Example 85, rac-cis-(2-(((5-Fluoropyridin-2-yl)amino)methyl)-3-methylpiperidin-1-yl)(5-(4-fluorophenyl)-2-methylthiazol-4-yl)methanone], the IC50 is over 10 µM.
As to `Cc1ccc(-c2ncccn2)c(C(=O)N2CCC[C@@H](C)[C@H]2CNc2ccc(C(F)(F)F)cn2)c1` (racemic) [Example 112, rac-cis-(3-Methyl-2-(((5-(trifluoromethyl)pyridin-2-yl)amino)methyl)piperidin-1-yl)(5-methyl-2-(pyrimidin-2-yl)phenyl)methanone], the IC50 was over 10 µM.
On the same count and under the same terms, next, `CO[C@@H]1C[C@@H](CNC(=O)c2cccc3cccnc23)N(C(=O)c2ccccc2-c2ccccc2)C1` [Example 129, N-(((2S,4R)-1-([1,1′-biphenyl]-2-carbonyl)-4-methoxypyrrolidin-2-yl)methyl)quinoline-8-carboxamide]: 0.32 µM; `Cc1nc(C(=O)N2CCC[C@@H](C)[C@H]2CNc2cc(C(F)(F)F)ccn2)c(-c2ccc(F)cc2)s1` (racemic) [Example 21, rac-cis-(5-(4-Fluorophenyl)-2-methylthiazol-4-yl)(3-methyl-2-(((4-(trifluoromethyl)pyridin-2-yl)amino)methyl)piperidin-1-yl)methanone]: 0.52 µM.
For `COc1c(F)cccc1C(=O)NCC1CCCC(C)N1C(=O)c1nc(C)sc1-c1ccc(F)cc1` (racemic) [Example 60, rac-3-Fluoro-N-((1-(5-(4-fluorophenyl)-2-methylthiazole-4-carbonyl)-6-methylpiperidin-2-yl)methyl)-2-methoxybenzamide], the IC50 turned out to be 0.37 µM.
